Data as given in patent US20170354148A1, “SAFENED HERBICIDAL COMPOSITIONS CONTAINING HALAUXIFEN AND METHODS OF USE THEREOF IN BRASSICA SPECIES” (Dow AgroSciences LLC, priority 2016, published 2017).

Assays:
[1] = test system: Spring Argentine canola (Brassica napus, BRSNS); experiment: Example 3 field trials (Canada), postemergence crop safety, visual phytotoxicity
[2] = test system: Aparima Gold swede (Brassica sp., BRSSS); experiment: Example 2 field trials (Canterbury, New Zealand), postemergence crop safety, visual phytotoxicity; details: 22DAA1, 3.75 g ae/ha

Question: Which “Mean % Visual Deformation” value ([1]; BRSNS, 60DAA1, 10 g ae/ha) does the source give for COC(=O)c1nc(-c2ccc(Cl)c(OC)c2F)cc(N)c1Cl [Halauxifen-methyl, methyl 4-amino-3-chloro-6-(4-chloro-2-fluoro-3-methoxyphenyl)-2-pyridineccarboxylate] here?
Answer: 13.8%

Question: And the “Mean % Visual Injury” value ([1]; BRSNS, trial 4, 15DAA1, 5 g ae/ha)?
Answer: 26.3%

Question: What about the “Mean % Visual Injury” value ([1]; Table 23, 32DAAA, halauxifen-methyl 5, clopyralid-olamine 150 g ae/ha, alone or mixed) of the same compound?
Answer: 21.3%

Question: And the “Mean % Visual Injury” value ([1]; Table 24, 32DAAA, halauxifen-methyl 5, clopyralid-olamine 150 g ae/ha alone, or both mixed with isoxadifen-ethyl 20 g ae/ha)?
Answer: 21.3%

Question: And the “Mean % Visual Injury” value ([1]; Table 27, 32DAAA, halauxifen-methyl 5, quinclorac 101 g ae/ha, alone or mixed)?
Answer: 21.3%

Question: What about the “Mean % Visual Injury” value ([1]; Table 28, 32DAAA, halauxifen-methyl 5, clopyralid-olamine 150, quinclorac 101 g ae/ha, alone or mixed) of the same compound?
Answer: 21.3%

Question: And the “Mean % Visual Growth Inhibition” value ([1]; Trial 9, 6DAA1, halauxifen-methyl 5, clopyralid-olamine 150 g ae/ha, alone or mixed)?
Answer: 16.3%

Question: And the “Mean % Visual Growth Inhibition” value [2]?
Answer: 16.3%
